Screens from PubChem BioAssay.
ELG1 repair inh = blocks ELG1-dependent DNA repair in HEK293T cells | Potency, µM (titrated, usually from 46.1 µM), without a hit: top-dose activity change, negative = inhibition, actives largely listed as inhibitors | HEK293T ELG1-luciferase reporter, luminescence, 16 h; DNA damage induced by 5-fluorouridine | actives 2.3% (n = 330,000); further: on the % scale 0 is the no-effect control and ±100 the full control effect; nearly all actives have a fitted effect of over 55% in size
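Overnight (16 hr) co-exposure of 2,000 cells/well to 5-fluorouridine and compound at 37 °C preceded detection. Luciferase was quantified via ONE-Glo luminescence; loss of signal denotes inhibition.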
Rango dissoc inh = inhibitors of RanGTP-induced Rango-importin beta complex dissociation; Potency, µM (series often up to 46.1 µM), inactives show at the top dose activity change, negative = inhibition; O95149+P62826; Biochemical FRET Rango-importin beta, RanGTP-induced dissociation; actives 0.071% (n = 340,000); calls by dose curve; further: % of control where 0% means no effect; nearly all actives have a fitted effect of over 45% in size
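Rango/importin beta premix (0.1/0.25 uM final), PBS + 1 mM DTT + 0.02% Tween-20 + 0.1% BSA; cpd 5 min RT; FRET pre-read; + RanGTP-RCC1 (0.6 uM Ran, 2 mM GTP, 0.2 uM RCC1); 45 min RT; FRET post-read, ex 430, em 486/530 nm.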
Rango complex inh = prevents formation of the Rango-importin beta complex; Q14974; Rango CFP/YFP FRET sensor + importin beta, 45 min; Potency, µM (titrated, usually from 92.2 µM), for inactives: top-dose inhibition of complex formation; actives 0.031% (n = 340,000); calls by dose curve;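 further: 0% = DMSO wells and 100% = buffer wells lacking importin beta; nearly all actives have a fitted effect of over 15% in size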
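FRET biosensor (snurportin 1 IBB flanked by EYFP and cerulean), 50 nM, with compound 5 min, then 0.125 microM importin beta in PBS, 1 mM DTT, 0.02% Tween-20, 0.1% BSA. CFP/YFP ratio read after 45 min at room temperature; pre-read flags interference.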
PKM2 activator = increases activity of human pyruvate kinase M2 | actives 0.34% (n = 260,000) | purified PKM2, Kinase-Glo ATP luminescence, activation; response scale: 0% is enzyme alone, no compound | Potency, µM (doses to about 57.5 µM), for the others: at the highest dose activation, hits mostly activators | P14618 | AID 1631; further: on the % scale 0 is the no-effect control and ±100 the full control effect; nearly all actives have a fitted effect of over 55% in size
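hPK-M2, >95% pure; 0.1 mM ADP / 0.5 mM PEP final; imidazole pH7.2 buffer w/ 7 mM MgCl2, 50 mM KCl; 1 h RT; Kinase-Glo lum. Intermediate enzyme activity for dual inhibitor/activator qHTS.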
Tb PGK inh = blocks T. brucei phosphoglycerate kinase | actives 0.043% (n = 380,000) | P07378 | AID 602233 | PGK/GAPDH coupled, Kinase-Glo luminescence, 60 min | Potency, µM (top dose mostly 57.5 µM), without a hit: at the top dose activity change, negative = inhibition, usual class: inhibitors; further: on the % scale 0 is the no-effect control and ±100 the full control effect; nearly all actives have a fitted effect of over 60% in size
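Luminescent ATP detection (Kinase-Glo Plus) follows a 60-minute room-temperature incubation, with wells lacking PGK as controls. Buffer: 100 mM TEA (pH 7.6), 5 mM MgCl2, 0.01% Tween-20. Coupling enzyme GAPDH (100 nM final) supplies unstable 1,3-BPG in-well.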
Tb PFK block = T. brucei PFK enzyme inhibition | O15648 | T. brucei PFK, ADP-Glo luminescence | Potency, µM (series often up to 57.5 µM), for the others: at the highest dose activity, negative = inhibition, hits mostly inhibitors | actives 0.17% (n = 330,000);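 further: 0% = uninhibited 1x PFK enzyme wells and -100% = no-enzyme wells; nearly all actives have a fitted effect of over 60% in size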
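PFK 1.25 nM, F6P 0.5 mM, ATP 0.1 mM, 0.1 M TEA pH 8.0, 5 mM MgCl2, 0.01% Tween20, 0.1% BSA; 45 min RT. ADP-Glo readout. qHTS titration up to 57 uM; curves fitted, compounds curve-classed.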
The depositor's hits bear a star; i = inactive; ? = inconclusive; · = no result given. An excerpt weighted towards active compounds, which were near 2.4% of everything screened. Unless noted, the call rests on the fitted dose curve; in most records, active means well fitted curve in the direction sought with a large enough effect; inconclusive means small, poorly fitted or top-dose-only effect, or another doubt; inactive means no such curve, though single readings can be large; an effect the other way counts as inactive or inconclusive. Potency means the concentration at half of the fitted maximal effect.

Labels used below – A = ELG1 repair inh; B = Rango dissoc inh; C = Rango complex inh; D = PKM2 activator; E = Tb PGK inh; F = Tb PFK block
(1) CC(C)(C)C1CCc2onc(C(=O)Nc3cnn(Cc4ccc(F)cc4)c3)c2C1 (stereo not drawn)
  A: -5%	B: -1%	C: 1%	D: 4%	E: -6%	F: -8%

(2) COc1ccc2c(c1)CCc1c(C(=O)Nc3c(C)nn(Cc4ccc(Cl)cc4)c3C)noc1-2
  A: ·	B: ·	C: ·	D: ·	E: -6%	F: ·

(3) COc1ccc2c(c1)CCc1c(C(=O)Nc3c(C)nn(Cc4ccccc4)c3C)noc1-2
  A: 13µM*	B: 5%	C: 2%	D: -4%	E: -5%	F: -2%

(4) CCOc1ccc(NC(=O)c2sc3nc4c(cc3c2N)CN(Cc2ccccc2)CC4)cc1
  A: ·	B: ·	C: ·	D: ·	E: -5%	F: ·

(5) CC(=O)NC(c1ccco1)c1cc(Br)c2cccnc2c1O (stereo not drawn)
  A: ·	B: ·	C: ·	D: ·	E: ·	F: 3%

(6) O=C(Cc1ccc(NC(=O)C2CCN(C(=O)C3CC3)CC2)cc1)Nc1cccc(C(=O)N2CCCC2)c1
  A: ·	B: -21%	C: -5%	D: ·	E: 0%	F: ·

(7) O=C(c1[nH]c2ccccc2c1Sc1ccc(Cl)cc1)N1CCCCC1
  A: ·	B: ·	C: ·	D: ·	E: 4%	F: ·

(8) CCN1CCS/C1=C\C=C\C1=[N+](CC)CCS1
  A: 0.58µM*	B: ?	C: ?	D: 1%	E: i	F: 0%

(9) C=CS(=O)(=O)N(Cc1ccc(Cl)c(Cl)c1)C[C@@H](O)CO
  A: 9.2µM*	B: -2%	C: 1%	D: ·	E: i	F: -24%

(10) FC(F)(F)c1ccccc1NC(=S)N1CCc2ccccc2C1
  A: 15µM*	B: 26%	C: 1%	D: 5%	E: -17%	F: -3%

(11) COc1ccc(-c2nn(-c3ccccc3)cc2/C=N/NC(N)=S)cc1OC
  A: 1.8µM*	B: -1%	C: -4%	D: 2%	E: i	F: -2%

(12) CCOC(=O)N1CCN(CC(O)COc2cc(C)cc(C)c2)CC1 (stereo not drawn)
  A: 9%	B: 9%	C: 1%	D: ·	E: 7%	F: -1%

(13) COc1ccccc1CNC(=O)C1CCN(S(=O)(=O)c2ccc3c(ccn3C)c2)CC1
  A: ·	B: ·	C: ·	D: ·	E: -7%	F: ·

(14) COc1ccccc1[C@@]1(C)ON(c2ccccc2C(F)(F)F)C1=O
  A: 18µM*	B: -19%	C: 0%	D: ·	E: 2%	F: 0%

(15) COc1ccc2c(c1)c(C(C)=O)c(C)n2CCc1ccc(OC)c(OC)c1
  A: 1%	B: 15%	C: -1%	D: ·	E: -5%	F: 2%

(16) COc1ccc2c(c1)c(C(C)=O)c(C)n2CCc1ccccc1
  A: 8.2µM*	B: 1%	C: -2%	D: ·	E: 8%	F: -4%

(17) CCOC(=O)c1c(N)n(-c2ccc(CC)cc2)c2nc3ccccc3nc12
  A: ·	B: ·	C: ·	D: ·	E: 8%	F: ·

(18) CCOC(=O)c1c(N)n(-c2ccc(N)cc2)c2nc3ccccc3nc12
  A: 9.2µM*	B: 0%	C: ?	D: -2%	E: -3%	F: -11%

(19) CCCNC(=O)c1c(N)n(-c2ccc3c(c2)OCO3)c2nc3ccccc3nc12
  A: 14%	B: -11%	C: 0%	D: -2%	E: -12%	F: 2%

(20) CCCNC(=O)c1c(N)n(-c2cc(OC)cc(OC)c2)c2nc3ccccc3nc12
  A: 18µM*	B: ?	C: ?	D: 1%	E: 2%	F: -2%

(21) Nc1c(C(=O)NC2CC2)c2nc3ccccc3nc2n1-c1ccc2c(c1)OCO2
  A: 16µM*	B: -24%	C: ?	D: 0%	E: i	F: -3%

(22) c1cnc2ccc3ncccc3c2c1
  A: ?	B: -3%	C: -2%	D: -4%	E: -8%	F: 1%

(23) Nc1ccc2ncccc2c1N
  A: 10µM*	B: -9%	C: 6%	D: -3%	E: 9%	F: ?

(24) CC(=O)c1[nH]c(C)c(C(=O)N2CCCC(Nc3cccc(F)c3)C2)c1C (stereo not drawn)
  A: ?	B: 30%	C: -1%	D: ·	E: -6%	F: 8%

(25) COc1ccc(C(NC(=O)c2cccnc2)c2cc(Cl)c3cccnc3c2O)cc1OC (stereo not drawn)
  A: ?	B: ?	C: 37µM*	D: 2%	E: -1%	F: 0%

(26) Cc1c2cnn(CC(=O)N3CCN(c4ccccc4)CC3)c(=O)c2c(C)n1Cc1ccc(F)cc1
  A: ·	B: ·	C: ·	D: ·	E: -3%	F: ·

(27) C[C@H](NC(=O)c1nc[nH]c1C(=O)NCCCCCNC(=O)OC(C)(C)C)C(=O)OC(C)(C)C
  A: 5.2µM*	B: 17%	C: 0%	D: 2%	E: -7%	F: -8%

(28) CC(C)(C)OC(=O)NCCCC[C@H](NC(=O)c1nc[nH]c1C(=O)N1CCN(c2ccccc2)CC1)C(=O)OC(C)(C)C
  A: 21µM*	B: -14%	C: ?	D: -2%	E: -2%	F: -3%

(29) CC(C)(C)OC(=O)NCCCCCNC(=O)c1nc[nH]c1C(=O)N1CCN(c2ccccc2)CC1
  A: ?	B: -4%	C: 0%	D: ·	E: -9%	F: -1%

(30) CCOc1ccc(NC(=O)c2ccc3nc(C(C)C)oc3c2)cc1
  A: ·	B: ·	C: ·	D: ·	E: 10%	F: ·

Rango complex inh: entries above that show a hit.
#	SMILES	Rango dissoc inh	Rango complex inh	PKM2 activator	Tb PGK inh	Tb PFK block
25	COc1ccc(C(NC(=O)c2cccnc2)c2cc(Cl)c3cccnc3c2O)cc1OC (stereo not drawn)	?	37µM*	2%	-1%	0%

Going on with the list:
Labels used below – A = ELG1 repair inh; B = Rango dissoc inh; C = Rango complex inh; D = PKM2 activator; E = Tb PGK inh; F = Tb PFK block
(31) O=C(C1CCN(Cc2cccs2)CC1)N1CCN(Cc2ccc3c(c2)OCO3)CC1
  A: 7%	B: 1%	C: 0%	D: -2%	E: i	F: -7%

(32) COc1ccc2oc(=O)c(C(=O)NCc3ccccc3)cc2c1
  A: 2%	B: -11%	C: -3%	D: 2%	E: i	F: -1%

(33) COc1ccc(C(=O)N/N=c2\oc3ccccc3cc2C(=O)NCc2ccccc2)cc1
  A: 10µM*	B: 0%	C: -2%	D: -4%	E: i	F: 2%

(34) Fc1ccc(/C=N/n2c(-c3cccs3)n[nH]c2=S)cc1
  A: 5%	B: 16%	C: 1%	D: -22%	E: -9%	F: -20%

(35) COc1ccc(NCC(=O)Nc2ccc(C#N)cc2)cc1Cl
  A: 26µM*	B: ?	C: -1%	D: 2%	E: -1%	F: -3%

(36) COc1ccc(NC(C)C(=O)Nc2ccc(C#N)cc2)cc1Cl (stereo not drawn)
  A: ?	B: 4%	C: 3%	D: -4%	E: -10%	F: -1%

(37) Cc1nc2sc(-c3ccccc3)cc2c(=O)n1N
  A: ?	B: 5%	C: -5%	D: -57%	E: 20µM*	F: -2%

(38) Cc1ccc(CSCC(=O)N(C)CC(=O)Nc2ccc(Cl)c(Cl)c2)cc1
  A: -19%	B: -6%	C: -2%	D: ·	E: 2%	F: -7%

(39) COCCn1c(N2CCN(c3ccc(OC)cc3)CC2)nc2c1c(=O)n(C)c(=O)n2C
  A: 18µM*	B: 5%	C: 4%	D: -7%	E: -8%	F: -6%

(40) CCOCCn1c(N2CCN(c3ccc(OC)cc3)CC2)nc2c1c(=O)n(C)c(=O)n2C
  A: ?	B: 32%	C: -4%	D: 0%	E: -1%	F: -1%

(41) C=CCn1c(N2CCN(c3ccc(OC)cc3)CC2)nc2c1c(=O)n(C)c(=O)n2C
  A: 16µM*	B: 12%	C: ?	D: 14%	E: -5%	F: -7%

(42) Cc1ccc2[nH]c(=O)c3cc(C(=O)N4CCN(C(=O)c5ccco5)CC4)sc3c2c1
  A: 16µM*	B: -12%	C: 0%	D: 16µM*	E: -4%	F: -22%

(43) CCOCCCN(Cc1ccco1)C(=O)c1cc2c(=O)[nH]c3ccc(C)cc3c2s1
  A: 16µM*	B: -7%	C: 1%	D: 0%	E: 3%	F: 3%

(44) CCN(c1ccccc1)S(=O)(=O)c1ccc(Cl)c(NC(=O)CN2C(=O)NC3(CCCC3)C2=O)c1
  A: -7%	B: -11%	C: -1%	D: -2%	E: i	F: -3%

Two compounds from above with just Tb PGK inh and ELG1 repair inh:
nr	smiles	Tb PGK inh	ELG1 repair inh
24	CC(=O)c1[nH]c(C)c(C(=O)N2CCCC(Nc3cccc(F)c3)C2)c1C (stereo not drawn)	-6%	?
25	COc1ccc(C(NC(=O)c2cccnc2)c2cc(Cl)c3cccnc3c2O)cc1OC (stereo not drawn)	-1%	?
